# Experimental data from PubChem BioAssay (Tox21).
# Values joined by “and” are separate entries in the source; they are usually repeats but may differ in a detail not shown here. Equal entries are not always repeated. The entries are a selection whose mix differs from that of the whole data set. Records with an inconclusive call do not appear. A structure can be active in one record and inactive in another. Active and inactive are the calls of the source. The call rests on the fitted dose curve; in most records, active means well fitted activation curve with a large enough effect in the repeat runs; inconclusive means weak or mixed curves; inactive means flat fitted curve, though single readings scatter.
# Experiment: A CellTox Green Cytotoxicity Assay to monitor cytotoxicity in HepG2 cells - 16 hour (AID 1224876); further: nearly all actives have a fitted effect of over 45% in size
# Conditions: CellTox Green fluorescence; series mostly up to 76.8 µM; cytotoxicity increase: at the top concentration
# From the text: National Center for Advancing Translational Sciences [NCATS]
# NIH Chemical Genomics Center [NCGC]
# U.S. Environmental Protection Agency [EPA]
# National Institutes of Environmental Health Sciences [NIEHS]
# National Toxicology Program [NTP]
# Cell-based models are critical for drug discovery. Determining the natural cytotoxic effects resulting from test compounds is an essential research activity. A CellTox Green Cytotoxicity Assay to monitor cytotoxicity in real time of continues cell culture during 40 hours of the compound treatment was used to screen Tox21 10K library compounds in HepG2 cells. CellTox Green Cytotoxicity Assay is a nonlytic, homogeneous, biofluorescent method to measure cytotoxicity in cell culture after experimental manipulation. The assay system uses a proprietary asymmetric cyanine dye that is excluded from viable cells but preferentially stains the dead cell's DNA. […] Viable cells produce no appreciable increases in fluorescence. Therefore, the fluorescence signal produced by the binding interaction with dead cell DNA is proportional to cytotoxicity.
# The mixture of HepG2 cell suspension and reagents were dispensed at 600cells/6 ul/well in 1536-well tissue culture treated black solid bottom plates using a Multidrop dispenser. After the assay plates were incubated at a 37 C/5% CO2 incubator for 5 hours, 23 nL of compounds dissolved in DMSO, positive and negative controls was transferred to the assay plate by a pintool work station. The plates were incubated at 37 C for 40 hours. The fluorescence intensity were measured at 0h, 8h, 16h, 24h, 32h and 40h time points using ViewLux plate reader during compound treatment.
# On the % scale 0 is the no-effect control and ±100 the full control effect; potency means the concentration at half of the fitted maximal effect.
SMILES,cytotoxicity increase,Potency
N=C(N)N[N+](=O)[O-],inactive: -5.37%,
[NH4+].[O-][Cl+3]([O-])([O-])[O-],inactive: -7.12%,
COP(C)(=O)OC,,inactive
CCN(CC)CCCl,inactive: 0.679%,
CN(C)CCCl,inactive: -9.38%,
CP(=O)(O)OCCC[Si](O)(O)O,inactive: -4.75%,
Cc1cccc([N+](=O)[O-])c1[N+](=O)[O-],inactive: -2.69% [at 35.3 µM],
Cc1c([N+](=O)[O-])cccc1[N+](=O)[O-],,inactive
CCOP(=O)(CC)OCC,inactive: -1.11%,
COc1ccc([N+](=O)[O-])cc1[N+](=O)[O-],inactive: -17.7%,
C/C1=C2N=C(/C=C3N=C(/C(C)=C4\[N-][C@@](C)([C@@H]5N=C1[C@](C)(CCC(=O)NC[C@@H](C)OP(=O)([O-])O[C@H]1[C@@H](O)[C@@H](n6cnc7cc(C)c(C)cc76)O[C@@H]1CO)[C@H]5CC(N)=O)[C@@](C)(CC(N)=O)[C@@H]4CCC(N)=O)[C@@](C)(CC(N)=O)[C@@H]\3CCC(N)=O)C(C)(C)[C@@H]/2CCC(N)=O.[C-]#N.[Co+3],inactive: -4.59% [at 35.3 µM],
CC(C)N(CCO)C(C)C,inactive: -1.4%,
CCOP(=O)(CC)Oc1ccc([N+](=O)[O-])cc1 (stereo unspecified),inactive: -3.75% [at 35.3 µM],
Cc1ccc([N+](=O)[O-])c([N+](=O)[O-])c1,,inactive and active: 19.5 µM
Cc1ccc([N+](=O)[O-])cc1[N+](=O)[O-],,inactive
OCCSCCO,,inactive
O=[N+]([O-])OCC(CO[N+](=O)[O-])(CO[N+](=O)[O-])CO[N+](=O)[O-],inactive: 15.7%,
Nc1cc([N+](=O)[O-])cc([N+](=O)[O-])c1O,inactive: -0.206%,
N#CBr,inactive: -14.6%,
O=[N+]([O-])[O-].[NH4+],,inactive and active: 38.9 µM
CC(C)OP(C)(=O)OC(C)C,,inactive
